The test system of one assay is MV4-11 leukemia cells. Nature of the assay: Antiproliferation assay (XTT), MV4-11. In kind it is cell-based, human. The settings on record: read-out: MV4-11 EC50 (Table S1).
For the next assay, the target named is recombinant human LSD1 (Homo sapiens, UniProt O60341). Nature of the assay: LSD1 enzyme inhibition assay (HRP/Amplex red). In kind it is biochemical. The note with it: read-out: LSD1 IC50 (Table S1).

pEC50, pIC50: −log10 of the molar value.

In the case of `NC1CC1c1ccc(Br)cc1` (centres unmarked), the pEC50 (in general, the negative decadic logarithm of the EC50, by convention in mol/L) in the assay with MV4-11 leukemia cells is less than 4.30. Consider `CN1CCN(C(=O)CNC2CC2c2cccc(Br)c2)CC1` (centres unmarked), for which the pEC50 with MV4-11 leukemia cells was 4.60. On to `NC1CC1c1ccc(OCc2ccccc2)cc1` (centres unmarked), for which, in the assay on MV4-11 leukemia cells, the pEC50 is 5.22. As to `c1ccc(C2CC2NCC2CCNCC2)cc1` (centres unmarked), in the assay with MV4-11 leukemia cells, the pEC50 was 6.89.

On to `O=C(CNC1CC1c1ccc(Br)cc1)N1CCNCC1` (centres unmarked), for which, in the assay on MV4-11 leukemia cells, the pEC50 is 7.00. On to `O=C(CNC1CC1c1ccccc1)N1CCCCC1` (centres unmarked), for which the pEC50 with MV4-11 leukemia cells is 5.60. Same read-out and setting: next, `O=C(CNC1CC1c1ccccc1)N1CCNCC1` (centres unmarked): 6.55; `CC(=O)NC1CC1c1ccc(Br)cc1` (centres unmarked): 4.40; `Brc1ccc(C2CC2NCc2ccccc2)cc1` (centres unmarked): 4.60. In the case of `NNC1CC1c1ccc(Br)cc1` (centres unmarked), the pEC50 in the assay with MV4-11 leukemia cells was 4.38. In addition, the pIC50 – broadly, the negative decadic logarithm of the IC50, by convention in mol/L – on recombinant human LSD1 is 5.24.

Source of the values: PMC4789278, “Pharmacological inhibition of LSD1 for the treatment of MLL-rearranged leukemia” (Journal of Hematology & Oncology, 2016).
